PubChem BioAssay AID2551 (National Center for Advancing Translational Sciences (NCATS), 2010)
The entries are a selection whose mix differs from that of the whole data set. Records with an inconclusive call do not appear. Some structures show a salt or complex split into parts, the way the source records it. The source made the active and inactive calls. Calls come from the whole dose curve; as a rule, active = well fitted inhibition curve with a large enough effect; inconclusive = small, poorly fitted or top-dose-only effect, or effect the other way; inactive = no such curve, though single readings can be large or run the other way.

The chains behind the UniProt entries cited, without tags or fusion partners.
UniProt P51450, whole entry: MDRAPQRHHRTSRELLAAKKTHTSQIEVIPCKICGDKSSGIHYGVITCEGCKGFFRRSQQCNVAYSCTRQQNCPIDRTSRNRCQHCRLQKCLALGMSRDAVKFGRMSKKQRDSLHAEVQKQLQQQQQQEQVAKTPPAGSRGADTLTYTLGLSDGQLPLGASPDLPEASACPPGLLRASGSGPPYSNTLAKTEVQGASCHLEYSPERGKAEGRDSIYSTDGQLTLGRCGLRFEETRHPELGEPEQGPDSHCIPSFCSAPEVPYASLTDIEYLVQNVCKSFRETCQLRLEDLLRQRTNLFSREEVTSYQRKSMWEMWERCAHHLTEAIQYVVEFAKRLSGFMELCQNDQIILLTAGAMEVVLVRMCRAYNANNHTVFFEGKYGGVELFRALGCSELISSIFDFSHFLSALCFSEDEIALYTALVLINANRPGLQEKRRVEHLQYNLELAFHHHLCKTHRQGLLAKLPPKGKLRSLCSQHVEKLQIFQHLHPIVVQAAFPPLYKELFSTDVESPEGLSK

molecular target: Nuclear receptor ROR-gamma (Mus musculus) (UniProt P51450); experiment: qHTS for inhibitors of ROR gamma transcriptional activity; settings: Drosophila S2 Gal4-RORgamma UAS-luciferase reporter, 20 h; at 53.6 µM (top of the series); note: nearly all actives have a fitted effect of over 60% in size
% is set by controls: 0 for no effect and ±100 for the full control effect.

Compound	activity change, negative = inhibition
CC(C)c1ccc(NC2CCN(C(=O)OC(C)(C)C)CC2)cc1	inactive: 0.542%
COc1ccc(CN(CCCl)CCCl)cc1Cl	inactive: 1.48%
CN(C)c1cccc(C(=O)NCC2(N3CCCCC3)CCCCC2)c1	inactive: 1.74%
COc1cc(OC)c(C(=O)NCC2(N(C)C)CCCCC2)cc1OC	inactive: -22.3%
CCOP(=O)(Cl)Cl	inactive: 10.6%
O=C(OC1CN2CCC1CC2)c1ccc([N+](=O)[O-])cc1 (stereo not given)	inactive: 19.3%
COc1ccc2c(c1O)-c1c(O)c(OC)cc3c1[C@H](C2)[N+](C)(C)CC3.O=[N+]([O-])c1cc([N+](=O)[O-])c([O-])c([N+](=O)[O-])c1[O-]	inactive: -10.4%
CCCOc1ccc(C(=O)NCC2(N(C)C)CCCCC2)cc1OC	inactive: 39.6%
O=C(NCC1(N2CCCCC2)CCCCC1)c1ccc(OC(F)F)cc1	inactive: 2.03%
N#CC1(Nc2ccccc2)CCN(CCc2ccccc2)CC1	inactive: 27.4%
O=C(NCC1(N2CCCCC2)CCCCC1)c1cccc([N+](=O)[O-])c1	inactive: -14%
O=C(NCC1(N2CCCCC2)CCCCC1)c1cccc(C(F)(F)F)c1	inactive: 3.55%
COc1cc(C(=O)NCC2(N3CCCCC3)CCCCC2)ccc1OC(F)F	inactive: -14.7%
O=C(NCC1(N2CCOCC2)CCCCC1)c1cc(=O)[nH]c2ccccc12	inactive: 4.46%
CN1CCN(CCOC(=O)C(O)(c2ccccc2)c2ccccc2)CC1	inactive: -1.34%
COc1ccc(NC2CCN(C(=O)OC(C)(C)C)CC2)cc1	inactive: 43.5%
CCOc1ccc(C)cc1CN(CCCl)CCCl	inactive: 8.74%
O=C(NCC1(N2CCCCC2)CCCCC1)c1ccc(F)cc1	inactive: -5.67%
COc1ccc(NC2CCN(CCc3ccccc3)CC2)c(OC)c1	inactive: -11.6%
CCOC(=O)N1CCC(Nc2ccc(F)cc2)CC1	inactive: -18.7%
COc1cc(C(=O)NCC2(N(C)C)CCCCC2)ccc1OC(F)F	inactive: -12.2%
COc1ccc(C(=O)NCC2(N3CCCCC3)CCCCC2)cc1	inactive: -21.6%
CC(C)(C)OC(=O)N1CCC(N(C(=O)c2ccccc2)c2ccc(F)cc2)CC1	inactive: 0.41%
COc1ccc(C(=O)NCC2(N3CCCCC3)CCCCC2)c(OC)c1OC	inactive: 1.45%
O=C(NCC1(N2CCCCC2)CCCCC1)c1ccc(=O)[nH]c1	inactive: -15%
CSc1ccccc1C(=O)NCC1(N2CCCCC2)CCCCC1	inactive: -20.6%
Cc1cc(C)cc(N(C(=O)c2ccccc2)C2CCN(C(=O)OC(C)(C)C)CC2)c1	inactive: -2.19%
O=C(NCC1(N2CCOCC2)CCCCC1)c1cc2ccccc2o1	inactive: -2.24%

Compound	activity change, negative = inhibition
O=C(OC1CN2CCC1CC2)C1c2ccccc2Oc2ccccc21 (stereo not given)	inactive: -16.6%
N#CC1(Nc2ccccc2)CCN(Cc2ccccc2)CC1	inactive: -2.92%
CCOC(=O)N1CCC(Nc2ccc(OC)cc2)CC1	inactive: 1.83%
CCOc1ncccc1C(=O)NCC1(N2CCOCC2)CCCCC1	inactive: 5.15%
CN1CCC(Nc2ccc(F)c(Cl)c2)CC1	inactive: 7.44%
CC(C)(C)OC(=O)N1CCC(Nc2ccccc2)CC1	inactive: 1.13%
O=C(O)C1(Nc2ccccc2)CCN(Cc2ccccc2)CC1	inactive: -18.7%
CCCOc1ccc(C(=O)NCC2(N(C)C)CCCCC2)cc1	inactive: -0.175%
COc1cc(OC)cc(C(=O)NCC2(N3CCOCC3)CCCCC2)c1	inactive: 2.05%
COc1cccc(C(=O)N(c2cc(C)cc(C)c2)C2CCN(C(=O)OC(C)(C)C)CC2)c1	inactive: -2.54%
CCC(CO)(C(=O)OC1CN2CCC1CC2)c1ccccc1 (stereo not given)	inactive: -3.57%
CCCOc1ccc(C)cc1CN(CCCl)CCCl	inactive: -11.8%
COc1cc(OC)cc(C(=O)NCC2(N3CCCCC3)CCCCC2)c1	inactive: 1.18%
Fc1ccccc1NC1CCN(Cc2ccccc2)CC1	inactive: -25.7%
CCN1CCC(Nc2cccc(F)c2)CC1	inactive: -9.4%
CN(C)c1ccc(C(=O)NCC2(N3CCCCC3)CCCCC2)cc1	inactive: 11.9%
N#Cc1ccc(C(=O)NCC2(N3CCCCC3)CCCCC2)cc1	inactive: 4.89%
CC(C)(C)OC(=O)N1CCC(N(C(=O)c2ccccc2)c2ccc(Cl)cc2)CC1	inactive: -25.4%
CCOC(=O)C(CC)C1=NC(C)(C)Cc2ccccc21.O=[N+]([O-])c1cc([N+](=O)[O-])c(O)c([N+](=O)[O-])c1 (stereo not given)	inactive: -16.3%
ClCCOP(OCCCl)OCCCl	inactive: -26.7%
CN(C)C1(CNC(=O)c2cccc(C#N)c2)CCCCC1	inactive: -14.5%
c1ccc(CN2CCC(Nc3ccccc3)CC2)cc1	inactive: 3.47%
COc1ccc(C(=O)NCC2(N3CCOCC3)CCCCC2)cc1OC	inactive: 1.2%
CCOC(=O)N1CCC(Nc2ccc(C)cc2)CC1	inactive: 17.5%
N/C(=N\O)c1c(N)no[n+]1[O-]	inactive: -15.6%
O=C(OC1CN2CCC1CC2)C1c2ccccc2C=Cc2ccccc21 (stereo not given)	inactive: 13.8%
O=C(O)c1cccc(Nc2c([N+](=O)[O-])cc([N+](=O)[O-])cc2[N+](=O)[O-])c1	inactive: -19.3%
